Assay results: US9884125B2, “Glucose-responsive insulin conjugates” (Merck Sharp & Dohme Corp., priority 2013, dated 2018)

Target: T1, Human macrophage mannose receptor 1 (MRC1) (Homo sapiens, UniProt P22897)
T1 sequence (P22897 19-1456): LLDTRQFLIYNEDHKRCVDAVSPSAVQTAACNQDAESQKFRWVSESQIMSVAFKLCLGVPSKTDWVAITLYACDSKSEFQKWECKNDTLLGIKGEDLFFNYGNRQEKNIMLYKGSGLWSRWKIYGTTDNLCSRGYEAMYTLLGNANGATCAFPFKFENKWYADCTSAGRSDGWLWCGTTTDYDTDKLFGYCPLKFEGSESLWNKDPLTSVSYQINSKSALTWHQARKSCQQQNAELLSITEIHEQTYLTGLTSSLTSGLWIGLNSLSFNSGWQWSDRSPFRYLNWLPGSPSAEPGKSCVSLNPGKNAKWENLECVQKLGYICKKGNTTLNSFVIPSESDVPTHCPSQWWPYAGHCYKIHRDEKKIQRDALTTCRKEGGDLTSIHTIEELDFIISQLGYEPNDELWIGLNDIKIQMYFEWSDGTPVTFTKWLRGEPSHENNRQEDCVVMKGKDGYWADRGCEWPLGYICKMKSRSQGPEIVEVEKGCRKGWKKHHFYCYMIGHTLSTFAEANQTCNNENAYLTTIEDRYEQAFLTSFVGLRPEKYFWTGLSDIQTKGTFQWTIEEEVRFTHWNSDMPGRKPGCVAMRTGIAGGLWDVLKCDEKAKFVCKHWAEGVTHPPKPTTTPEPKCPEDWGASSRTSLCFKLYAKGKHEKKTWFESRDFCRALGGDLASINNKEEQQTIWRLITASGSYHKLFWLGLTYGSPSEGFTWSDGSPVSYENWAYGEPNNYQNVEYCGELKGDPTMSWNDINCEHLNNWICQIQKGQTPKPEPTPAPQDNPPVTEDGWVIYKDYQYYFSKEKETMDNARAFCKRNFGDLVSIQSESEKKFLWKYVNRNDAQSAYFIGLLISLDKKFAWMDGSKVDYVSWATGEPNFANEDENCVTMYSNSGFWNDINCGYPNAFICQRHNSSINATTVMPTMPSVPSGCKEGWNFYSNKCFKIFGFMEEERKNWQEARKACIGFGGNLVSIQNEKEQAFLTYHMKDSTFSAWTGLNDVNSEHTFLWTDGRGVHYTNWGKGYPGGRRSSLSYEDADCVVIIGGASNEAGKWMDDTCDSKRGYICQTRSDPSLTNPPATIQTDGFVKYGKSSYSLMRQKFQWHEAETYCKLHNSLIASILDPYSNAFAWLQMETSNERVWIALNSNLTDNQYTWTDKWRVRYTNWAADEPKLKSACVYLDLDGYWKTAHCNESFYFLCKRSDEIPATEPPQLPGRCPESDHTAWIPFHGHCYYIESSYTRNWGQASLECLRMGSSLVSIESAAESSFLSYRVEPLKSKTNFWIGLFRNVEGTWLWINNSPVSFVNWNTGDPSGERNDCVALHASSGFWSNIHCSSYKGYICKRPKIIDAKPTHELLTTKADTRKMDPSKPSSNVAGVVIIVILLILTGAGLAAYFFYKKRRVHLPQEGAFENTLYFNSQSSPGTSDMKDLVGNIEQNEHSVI
Experiment: MRC1 competition binding assay (Eu-mannosylated-BSA), Method F: 96-well, manual liquid dispense
Settings: read-out: MRC1 Binding IP (inflection point, corresponds to IC50)
Method: The competition binding assay for MRC1 utilized a ligand, mannosylated-BSA labeled with the DELFIA Eu-N1-ITC reagent, as reported in the literature. […] The antibody was incubated in the plate for 1 hr at room temperature with shaking. The plate was washed with wash buffer 3-5 times followed by addition of MRC1 (2 ng/μl final concentration) in 25 μl PBS containing 1% stabilizer BSA. The plate was incubated at room temperature with gentle shaking for 1 hr. The plate was washed three times with wash buffer. […]
Their in vitro biological activities towards insulin receptor (IR) were measured by either ligand competition assays or functional phosphorylation assays, as described above, labeled as following: Method A: IR phosphorylation assay based on 96-well with manual liquid dispense; Method B: IR phosphorylation assay based on 96-well with automated liquid dispense; Method C: IR phosphorylation assay based on 384-well with automated liquid dispense; Method D: IR binding assay method D; Method E: IR binding assay method E; Method F: MRC1 assay was performed in a 96-well plate with a manual liquid dispense; Method G: MRC1 assay was performed in a 96-well plate with an automated liquid dispense; Method H: MRC1 assay was performed in a 384-well plate with an automated dispense.

N^εB29-6-((((2-oxo-2-((α-D-mannopyranosyl-(1→3)-[α-D-mannopyranosyl-(1→6)]-α-D-mannopyranosyl)-2-oxyethyl)amino) (2-oxo-2-((α-L-fucopyranosyloxy)-2-oxoethyl)amino)ethyl)amino)acetamido)-6-oxohexanoyl Human Insulin [IOC-58]
IC50: 7.95 nM
